Measurements as given in PubChem BioAssay AID938 (National Center for Advancing Translational Sciences (NCATS), 2007).
The entries are a selection whose mix differs from that of the whole data set. Inconclusive results are not listed. Active and inactive are the calls of the source. Calls come from the whole dose curve; as a rule, active = well fitted activation curve with a large enough effect; inconclusive = small, poorly fitted or top-dose-only effect; inactive = no such curve, though single readings can be large or run the other way.

Assay: qHTS Assay for Agonists of the Thyroid Stimulating Hormone Receptor: Activators of Intracellular cAMP Concentrations in Parental HEK 293; note: % of control where 0% means no effect; nearly all actives have a fitted effect of over 55% in size
Details: parental HEK293 CNG cAMP sensor, membrane potential fluorescence; at 57.1 µM (top of the series)

| Compound | activation |
| --- | --- |
| O=[N+]([O-])C(Cl)(Cl)Cl | inactive: 29.9% |
